# Test results: US11918570B2, “Method of treatment for prevention of glucocorticoid toxicity and/or enhancement of muscle regeneration via neutrophil elastase inhibition” (The Research Foundation for The State University of New York, priority 2020, dated 2024)
# Test system: myoblasts isolated from a patient affected by Duchenne muscular dystrophy
# Assay: NE-induced myoblast death, DMD patient myoblasts treated with human NE
# Type: cell-based
# Description: The number of live cells in each condition was counted and plotted as percentage of the number of live cells in the untreated (Control) condition.
smiles,measurement,setting,value
CC(=O)C1=C(C)N(c2cccc(C(F)(F)F)c2)C(=O)N[C@@H]1c1ccc(C#N)nc1 [BAY-678],rescue of NE-induced myoblast death (number of live cells as percentage of untreated Control),"DMD patient myoblasts treated with human NE, FIG. 1D",similarly effective at rescuing NE-induced myoblast cell death; also recorded: similarly effective at blocking NE-induced myoblast death
same,effectiveness against human NE compared with mouse NE,comparison of FIG. 1D (hNE) and FIG. 1E (mNE),most effective against human NE

# Entries after “also recorded” stand apart in the source; their conditions may differ.
